Data on one substance can be found in patent US20080075695A1, “COMBINATION THERAPY METHOD FOR TREATING HEPATITIS C VIRUS INFECTION AND PHARMACEUTICAL COMPOSITIONS FOR USE THEREIN” (priority 2006, published 2008).

For the experiment, the system named is HCV. As to the kind of experiment: Phase 1b clinical trial (MAD study), plasma HCV RNA. The conditions noted are these: for MEAN Δ change from baseline (log HCV RNA level): on-therapy analysis. In kind it is in vivo, human.
Setting [1] is: Day 14, PEG-INF alone, all genotypes.
The mark [2] stands for this setting: Day 14, PEG-INF alone, genotype 1.

On to “PEG-INF: pegylated interferon alfa-2b (PEG-Intron), administered subcutaneously [reference compound]”, for which the “MEAN Δ change from baseline (log HCV RNA level)” value reads like this: (Day 4, PEG-INF alone 1.5 μg/kg/dose, all genotypes) −1.03 log; (Day 7, PEG-INF alone 1.5 μg/kg/dose, all genotypes) −1.11 log; (Day 14, PEG-INF alone 1.5 μg/kg/dose, all genotypes) −1.69 log. Moreover, under setting [1], the “% Subjects BQL (below quantification limits, <50 IU/mL)” value is listed as 2 (14%). The “% Subjects with ≧1.5 log ↓ in log10 HCV RNA” value by setting is: under setting [1], 7 (50%); under setting [2], 4 (40%). In addition, the “% Subjects with ≧2 log ↓ in log10 HCV RNA” value is, setting by setting: under setting [1], 6 (43%); (Day 14, PEG-INF alone, all genotypes, listed as pegylated interferon) 43%; under setting [2], 4 (40%). Also, the “% Subjects with ≧3 log ↓ in log10 HCV RNA” value under setting [1] was 2 (14%). The “mean reduction from baseline in plasma HCV RNA” value (from here on “mean reduction from baseline”) (day 7, pegylated interferon alone) is on record as 1.1 log 10; the “mean reduction from baseline” value (day 14, genotype 1, pegylated interferon alone) is listed as 1.3 log 10; the “mean reduction from baseline” value (day 14, pegylated interferon alone) came out at 1.7 log 10.
